# Antibody variant affinities, Ab-14 heavy chain, assay 1

The measurements come from Engelhart et al. 2022 (doi:10.1038/s41597-022-01779-4) through the FLAb antibody collection.

All variants were tested on one target, the spike HR2 peptide PDVDLGDISGINAS (SARS-CoV-2).

Each scFv is VH, a (GGGGS)3 linker, VL, as in the parent Ab-14, and differs from it in the CDRs of the heavy chain only.
VH: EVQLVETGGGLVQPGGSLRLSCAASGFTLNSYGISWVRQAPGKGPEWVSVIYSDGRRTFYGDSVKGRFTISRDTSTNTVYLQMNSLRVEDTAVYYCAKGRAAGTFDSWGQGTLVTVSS
VL: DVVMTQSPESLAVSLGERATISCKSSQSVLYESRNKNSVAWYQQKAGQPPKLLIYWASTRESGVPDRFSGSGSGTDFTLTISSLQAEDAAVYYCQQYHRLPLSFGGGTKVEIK

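The starting antibody came from a phage panning campaign against this peptide. In library AAYL49, one, two or three CDR residues were substituted; doubles and triples were drawn at random. The assay is AlphaSeq: two haploid yeast populations carry antibody and antigen on their surface. Mating (16 h, 30 °C) was followed by selection of diploids and sequencing of their barcodes. Scores were corrected for input abundance and mapped to Kd with protein pairs of known affinity run in the same pool. Mating was done three times.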

Each variant's VH is given in full.
The read-out is the apparent dissociation constant on a log10 scale (nM): the lower, the stronger.
An entry "nd" has no value in the source: the pair was not observed among the diploids in that replicate. This suggests poor binding but is not conclusive.
Nonspecific signal, from three strains lacking the peptide, appeared in 15% of pairings of library AAYL49, centred on 4.06 (5% of these signals below 2.83); values are not corrected for it. Also given: how often the same scFv was detected with the empty control strains.

For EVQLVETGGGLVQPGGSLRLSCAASGFTLNSYGISWVRQAPGKGPEWVSVIYSDGCRTFHEDSVKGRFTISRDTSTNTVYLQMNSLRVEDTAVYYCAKGRAAGTFDSWGQGTLVTVSS, the assay gave nd, nd, nd (controls 0 of 9).
For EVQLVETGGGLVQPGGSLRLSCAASGFTLNSYGISWVRQAPGKGPEWVSVIYSDGRRTFYGDSGKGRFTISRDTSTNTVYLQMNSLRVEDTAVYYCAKGRAAGTFDSWGQGTLVTVSS, the assay gave nd, nd, nd (controls 0 of 9).
For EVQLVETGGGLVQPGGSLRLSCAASGFTLNSYGISWVRQAPGKGPEWVSVGYSDERRTKYGDSVKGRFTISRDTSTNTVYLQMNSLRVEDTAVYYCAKGRAAGTFDSWGQGTLVTVSS, the assay gave nd, nd, nd (controls 0 of 9).
For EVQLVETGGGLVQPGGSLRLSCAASGFTLNSYGISWVRQAPGKGPEWVSVIYSKGRRTFYGDSCKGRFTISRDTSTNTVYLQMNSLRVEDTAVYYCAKGRAAGTFDHWGQGTLVTVSS, the assay gave nd, nd, nd (controls 0 of 9).
For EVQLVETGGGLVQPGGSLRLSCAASGFTLNSYGISWVRQAPGKGPEWVSVEYSDGRRTFYGDSVKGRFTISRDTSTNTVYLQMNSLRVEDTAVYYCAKFRAAGTIDSWGQGTLVTVSS, the assay gave 2.59, nd, nd (controls 0 of 9).
For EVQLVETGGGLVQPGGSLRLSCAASGFTLNSYGISWVRQAPGKGPEWVSVIYSDFRRTWYGDSVKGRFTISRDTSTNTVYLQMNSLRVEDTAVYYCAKGRAATTFDSWGQGTLVTVSS, the assay gave nd, nd, nd (controls 3 of 9).
For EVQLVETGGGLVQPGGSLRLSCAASGFTLNSYGISWVRQAPGKGPEWVSVNYSDGRRTFCGDSVKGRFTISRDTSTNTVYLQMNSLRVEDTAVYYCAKGRAAGTCDSWGQGTLVTVSS, the assay gave nd, nd, nd (controls 0 of 9).
For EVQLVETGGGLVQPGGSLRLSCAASGETLNIYGISWVRQAPGKGPEWVSVIYSDGRVTFYGDSVKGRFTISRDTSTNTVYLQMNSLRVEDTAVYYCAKGRAAGTFDSWGQGTLVTVSS, the assay gave nd, nd, nd (controls 3 of 9).
For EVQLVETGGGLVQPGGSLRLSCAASGFTLNSYGRAWVRQAPGKGPEWVSVIYSDGRGTFYGDSVKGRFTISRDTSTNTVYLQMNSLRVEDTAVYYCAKGRAAGTFDSWGQGTLVTVSS, the assay gave 4.83, nd, nd (controls 0 of 9).
For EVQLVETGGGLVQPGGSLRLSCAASGFTLNSYGISWVRQAPGKGPEWVSVIYSDGEYTFYGDSVKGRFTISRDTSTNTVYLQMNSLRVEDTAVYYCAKGRAAGTFDSWGQGTLVTVSS, the assay gave nd, nd, nd (controls 0 of 9).
For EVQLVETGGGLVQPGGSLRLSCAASGFTLNSYGISWVRQAPGKGPEWVSVTYSDGRRTFYMDSVKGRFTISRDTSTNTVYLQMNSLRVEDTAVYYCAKGRAASTFDSWGQGTLVTVSS, the assay gave nd, nd, nd (controls 2 of 9).
For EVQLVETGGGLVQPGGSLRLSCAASGFTANSYGVSWVRQAPGKGPEWVSVIYSDGRRTFYFDSVKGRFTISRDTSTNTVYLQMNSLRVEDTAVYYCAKGRAAGTFDSWGQGTLVTVSS, the assay gave nd, 3.69, nd (controls 1 of 9).
For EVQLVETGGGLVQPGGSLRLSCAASGFYLNSAGISWVRQAPGKGPEWVSVIYSDGRRTFYGDSVKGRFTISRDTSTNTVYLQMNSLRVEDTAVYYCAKGRAKGTFDSWGQGTLVTVSS, the assay gave nd, 4.26, 3.90 (controls 5 of 9).
For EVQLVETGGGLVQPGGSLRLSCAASGFTLNSYGISWVRQAPGKGPEWVSVIYRDGRRGFYGDSVKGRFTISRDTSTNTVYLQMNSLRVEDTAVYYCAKGRAGGTFDSWGQGTLVTVSS, the assay gave nd, nd, nd (controls 3 of 9).
For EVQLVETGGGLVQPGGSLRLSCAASGFYLNSYGISWVRQAPGKGPEWVSEIYSDGRRTFYGDSVKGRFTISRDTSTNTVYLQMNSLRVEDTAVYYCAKGRAAGTFDHWGQGTLVTVSS, the assay gave nd, 3.50, nd (controls 2 of 9).